The values below are quoted from earlier work in patent US11959096B2, “Methods for selective inhibition of pluripotent stem cells” (THE MEDICAL COLLEGE OF WISCONSIN, INC., priority 2014, dated 2024).

By UniProt entry, the sequences of proteins in these tests, tags left out. Where a name states a change or a piece, a line headed by the entry shows the natural chain unless it says otherwise.
UniProt P43490: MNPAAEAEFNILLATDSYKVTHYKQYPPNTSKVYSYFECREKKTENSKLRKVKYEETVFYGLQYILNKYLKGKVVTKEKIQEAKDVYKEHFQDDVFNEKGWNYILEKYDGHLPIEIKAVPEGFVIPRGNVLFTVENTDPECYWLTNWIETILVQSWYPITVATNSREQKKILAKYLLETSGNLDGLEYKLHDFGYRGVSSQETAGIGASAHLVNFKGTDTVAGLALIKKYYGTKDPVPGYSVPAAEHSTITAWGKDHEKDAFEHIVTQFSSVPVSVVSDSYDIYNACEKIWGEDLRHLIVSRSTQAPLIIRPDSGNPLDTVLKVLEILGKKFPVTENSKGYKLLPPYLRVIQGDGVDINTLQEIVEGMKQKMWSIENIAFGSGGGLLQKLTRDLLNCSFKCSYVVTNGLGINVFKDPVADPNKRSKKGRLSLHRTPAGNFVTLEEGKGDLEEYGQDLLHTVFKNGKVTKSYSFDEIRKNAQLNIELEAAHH

Usually IC50 stands for the concentration that gives 50% inhibition.

This data set deals with NAMPT (Homo sapiens, UniProt P43490). As to conditions: purified enzyme assay; cited from earlier work.

As for “4-[[[[4-(1,1-Dimethylethyl)phenyl]sulfonyl]amino]methyl]-N-3-pyridinyl-benzamide [STF-31]”, the IC50 is 0.019 µM.
